The values below come from patent US11472769B2, “SSAO inhibitors and use thereof” (Eccogene (Shanghai) Co., Ltd., priority 2019, dated 2022).

Sequences of proteins named here, by UniProt entry; tags and fusion partners are left off.
UniProt P27338, whole entry: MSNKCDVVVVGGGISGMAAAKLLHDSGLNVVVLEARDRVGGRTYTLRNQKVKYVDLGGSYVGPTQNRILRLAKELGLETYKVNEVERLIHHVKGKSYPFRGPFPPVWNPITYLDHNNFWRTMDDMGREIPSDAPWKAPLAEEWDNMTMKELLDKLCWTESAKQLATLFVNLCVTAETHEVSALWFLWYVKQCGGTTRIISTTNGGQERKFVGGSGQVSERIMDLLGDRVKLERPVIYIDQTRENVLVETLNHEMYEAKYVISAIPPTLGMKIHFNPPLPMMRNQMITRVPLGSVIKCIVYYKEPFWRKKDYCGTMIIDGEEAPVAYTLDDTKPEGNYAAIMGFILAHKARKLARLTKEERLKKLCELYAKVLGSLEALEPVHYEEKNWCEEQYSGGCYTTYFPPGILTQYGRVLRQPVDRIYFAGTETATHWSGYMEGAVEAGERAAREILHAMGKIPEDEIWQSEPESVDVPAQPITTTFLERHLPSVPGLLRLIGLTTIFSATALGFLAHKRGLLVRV
UniProt P21397, whole entry: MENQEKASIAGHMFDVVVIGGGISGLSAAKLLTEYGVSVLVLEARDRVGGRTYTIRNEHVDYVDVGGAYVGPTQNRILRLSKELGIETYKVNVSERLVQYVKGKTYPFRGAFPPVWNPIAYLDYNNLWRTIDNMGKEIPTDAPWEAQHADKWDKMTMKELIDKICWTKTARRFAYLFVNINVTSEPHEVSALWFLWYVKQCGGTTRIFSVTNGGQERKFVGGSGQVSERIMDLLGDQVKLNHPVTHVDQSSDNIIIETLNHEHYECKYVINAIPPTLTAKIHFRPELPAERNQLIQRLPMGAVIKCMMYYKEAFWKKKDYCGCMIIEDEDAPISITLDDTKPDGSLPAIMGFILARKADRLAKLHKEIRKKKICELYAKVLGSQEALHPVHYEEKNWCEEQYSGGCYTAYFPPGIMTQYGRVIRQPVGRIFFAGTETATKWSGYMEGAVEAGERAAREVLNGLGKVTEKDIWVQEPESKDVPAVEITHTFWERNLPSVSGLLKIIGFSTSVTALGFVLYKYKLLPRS
UniProt Q16853, whole entry: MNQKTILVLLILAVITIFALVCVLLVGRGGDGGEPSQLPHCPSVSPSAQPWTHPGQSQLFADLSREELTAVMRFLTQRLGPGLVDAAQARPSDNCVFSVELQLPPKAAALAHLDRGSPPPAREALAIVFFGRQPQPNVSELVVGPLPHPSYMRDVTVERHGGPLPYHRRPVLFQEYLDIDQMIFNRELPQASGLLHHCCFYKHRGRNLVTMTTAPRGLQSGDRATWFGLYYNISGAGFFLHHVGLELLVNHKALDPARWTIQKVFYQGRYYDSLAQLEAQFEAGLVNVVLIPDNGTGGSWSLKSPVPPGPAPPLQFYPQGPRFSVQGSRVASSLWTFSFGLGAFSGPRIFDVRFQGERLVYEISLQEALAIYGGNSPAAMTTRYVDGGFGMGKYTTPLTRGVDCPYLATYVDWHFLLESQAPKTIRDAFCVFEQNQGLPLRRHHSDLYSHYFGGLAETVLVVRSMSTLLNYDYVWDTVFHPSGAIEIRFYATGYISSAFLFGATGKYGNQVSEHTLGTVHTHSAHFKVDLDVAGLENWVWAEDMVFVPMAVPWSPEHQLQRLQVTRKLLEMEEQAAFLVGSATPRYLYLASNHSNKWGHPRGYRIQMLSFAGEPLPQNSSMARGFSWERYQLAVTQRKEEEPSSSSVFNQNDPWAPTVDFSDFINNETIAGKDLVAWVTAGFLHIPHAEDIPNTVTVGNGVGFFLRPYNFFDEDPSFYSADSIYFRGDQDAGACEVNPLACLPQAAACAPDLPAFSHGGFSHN

Read-outs that look alike come from different tables or passages of the source.

Common to all, as to format: biochemical
One assay addresses recombinant hMAO-B (Homo sapiens (Human), UniProt P27338). The assay is described as follows: MAO-B activity assay (MAO-Glo assay kit).
The target of a further assay is recombinant hMAO-A (Homo sapiens (Human), UniProt P21397). Kind of assay: MAO-A activity assay (MAO-Glo assay kit). The following applies: read-out: MAO-A Activity (IC50), 40 μM substrate, 30 mins pre-incubation, tested form: HCl.
The target of a further assay is recombinant hSSAO (Homo sapiens (Human), UniProt Q16853). The assay is described as follows: SSAO Activity Assay (MAO-Glo assay kit).
The mark [1] stands for this setting: read-out: MAO-B Activity (IC50), 4 μM substrate, 30 mins pre-incubation, tested form: HCl.
Setting [2] is: read-out: SSAO Activity (IC50), 40 μM substrate, 30 mins pre-incubation, tested form: HCl.
Where [3] appears, read: read-out: SSAO Activity (IC50), 40 μM substrate, 30 mins pre-incubation.

As a reminder, the IC50 is the concentration at which inhibition is half-maximal. Take `CC(C)N1CCC2(CCC(CS(=O)(=O)c3ccc(OC/C(=C/F)CN)cc3)CC2)C1=O` (single isomer, unassigned): the IC50 on recombinant hMAO-B (setting [1]) is over 30 µM; at recombinant hMAO-A, over 30 µM; at recombinant hSSAO (setting [2]), 0.02 to 0.1 µM.

Take `CC(CN1CCC2(CCCC2)C1=O)CS(=O)(=O)c1ccc(OC/C(=C/F)CN)cc1` (single isomer, unassigned): the IC50 at recombinant hMAO-B (setting [1]) is under 10 µM; on recombinant hMAO-A, over 30 µM; on recombinant hSSAO (setting [2]) it was 0.02 to 0.1 µM.

For `CC(CN1CCCC1=O)CS(=O)(=O)c1ccc(OC/C(=C/F)CN)cc1` (single isomer, unassigned), the IC50 on recombinant hMAO-B (setting [1]) and at recombinant hMAO-A was over 30 µM throughout.

With `CC1(C)COC(CS(=O)(=O)c2ccc(OC/C(=C/F)CN)cc2)CO1` (single isomer, unassigned), the IC50 on recombinant hMAO-B (read-out: MAO-B Activity (IC50), 4 μM substrate, 30 mins pre-incubation) lay in the range of 10 to 30 µM; at recombinant hSSAO (setting [3]), 0.02 to 0.1 µM.

`NCC(=CF)COc1ccc(S(=O)(=O)CC2CCOC2)cc1` (single isomer, unassigned): the IC50 at recombinant hSSAO (setting [3]) lay in the range of 0.02 to 0.1 µM.
